Sequences of proteins named here, by UniProt entry; tags and fusion partners are left off.
UniProt P62937, whole entry: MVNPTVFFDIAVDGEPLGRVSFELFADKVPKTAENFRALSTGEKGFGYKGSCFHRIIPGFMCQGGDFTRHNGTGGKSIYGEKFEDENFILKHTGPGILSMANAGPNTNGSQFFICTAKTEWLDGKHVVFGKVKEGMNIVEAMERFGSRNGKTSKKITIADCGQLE

In patent US9512175B2, “Macrocyclic inhibitors of flaviviridae viruses” (Gilead Sciences, Inc., priority 2012, dated 2016):

Target: cyclophilin A (Homo sapiens, UniProt P62937)
Test: Cyclophilin A TR-FRET competitive binding assay
Details: read-out: TR-FRET; IC50 ranges; competition with CsA-Cy5 for His-tagged CypA, two-hour incubation

| Compound | IC50 |
| --- | --- |
| CC(C)[C@@H]1NC(=O)C2(/C=C/c3ccc4ccc(nc4c3)[C@@H](C)OC(=O)[C@@H]3CCCN(N3)C(=O)[C@H](C)NC1=O)CCOC(C)(C)C2 (some centres unmarked) [Compound 123] | < 100 nM |
| CC(C)[C@@H]1NC(=O)C(C)(C(C)O)/C=C/c2ccc3ccc(nc3c2)[C@@H](C)OC(=O)[C@@H]2CCCN(N2)C(=O)[C@H](C)NC1=O (single isomer, unassigned) | < 100 nM |
| CC(C)[C@@H]1NC(=O)C(C)(C#N)/C=C/c2ccc3ccc(nc3c2)[C@@H](C)OC(=O)[C@@H]2CCCN(N2)C(=O)[C@H](C)NC1=O (single isomer, unassigned) | < 100 nM |
| COCC1NC(=O)[C@H](C(C)C)NC(=O)C(C)(C)/C=C/c2ccc3ccc(nc3c2)[C@@H](C)OC(=O)[C@@H]2CCCN(N2)C1=O (single isomer, unassigned) | 101 to 1000 nM |
| CC(C)[C@@H]1NC(=O)C(C)(C(C)(C)O)/C=C/c2ccc3ccc(nc3c2)[C@@H](C)OC(=O)[C@@H]2CCCN(N2)C(=O)[C@H](C)NC1=O (single isomer, unassigned) | < 100 nM |
